{
  "sequences": {"note": "Sequences of proteins named here, by UniProt entry; tags and fusion partners are left off.", "UniProt P21554, whole entry": "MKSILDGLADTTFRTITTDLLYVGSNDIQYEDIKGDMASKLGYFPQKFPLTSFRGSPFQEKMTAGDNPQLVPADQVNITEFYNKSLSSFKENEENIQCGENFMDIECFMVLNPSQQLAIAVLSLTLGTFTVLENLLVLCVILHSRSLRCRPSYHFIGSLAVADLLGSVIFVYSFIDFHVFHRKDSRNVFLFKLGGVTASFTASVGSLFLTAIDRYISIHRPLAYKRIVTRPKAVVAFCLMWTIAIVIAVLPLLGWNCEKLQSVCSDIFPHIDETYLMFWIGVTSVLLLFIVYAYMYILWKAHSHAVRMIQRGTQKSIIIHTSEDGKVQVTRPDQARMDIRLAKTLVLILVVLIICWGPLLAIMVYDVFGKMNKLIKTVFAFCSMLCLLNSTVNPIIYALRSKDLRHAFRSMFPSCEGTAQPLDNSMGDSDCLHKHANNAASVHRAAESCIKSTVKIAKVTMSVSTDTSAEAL"},
  "source": "ChEMBL document CHEMBL5042498",
  "about": "“Development of 3-(4-Chlorophenyl)-1-(phenethyl)urea Analogues as Allosteric Modulators of the Cannabinoid Type-1 Receptor: RTICBM-189 is Brain Penetrant and Attenuates Reinstatement of Cocaine-Seeking Behavior” (J Med Chem, 2022)",
  "key": {"Cannabinoid receptor 1": {"target": "Cannabinoid receptor 1 (Homo sapiens, UniProt P21554)", "experiment": "Agonist activity at human CB1 receptor CP55940-stimulated calcium mobilization at 10 uM incubated for 15 mins FLIPR assay relative to control", "assay_type": "functional", "summary_of_the_method": "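Agonist screen in CHO-RD-HGA16 cells stably expressing hCB1, loaded with Calcium 5 dye for 45 min at 37 °C and pretreated with buffer vehicle. Test compound is added at a single 10 μM concentration by FLIPR Tetra. Fluorescence is read every 1 s for 90 s (ex/em 485/525 nm). RFU are expressed as % of CP55,940 Emax.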"}, "[1]": {"settings": "rat, microsomes, 0.75 h"}},
  "data": [
    {"molecule": "O=C(NCCc1cccc(Cl)c1)Nc1ccc(Cl)cc1", "values": [
      {"measurement": "Emax", "setting": "Cannabinoid receptor 1", "result": "< 30", "unit": "%"},
      {"measurement": "QH", "setting": "[1]", "result": 70.6, "unit": "%"}
    ]}
  ]
}
